As a reminder, the IC50 is the concentration needed to halve the response being measured.

By UniProt entry, the sequences of proteins in these tests, tags left out. Where a name states a change or a piece, a line headed by the entry shows the natural chain unless it says otherwise.
UniProt P56373: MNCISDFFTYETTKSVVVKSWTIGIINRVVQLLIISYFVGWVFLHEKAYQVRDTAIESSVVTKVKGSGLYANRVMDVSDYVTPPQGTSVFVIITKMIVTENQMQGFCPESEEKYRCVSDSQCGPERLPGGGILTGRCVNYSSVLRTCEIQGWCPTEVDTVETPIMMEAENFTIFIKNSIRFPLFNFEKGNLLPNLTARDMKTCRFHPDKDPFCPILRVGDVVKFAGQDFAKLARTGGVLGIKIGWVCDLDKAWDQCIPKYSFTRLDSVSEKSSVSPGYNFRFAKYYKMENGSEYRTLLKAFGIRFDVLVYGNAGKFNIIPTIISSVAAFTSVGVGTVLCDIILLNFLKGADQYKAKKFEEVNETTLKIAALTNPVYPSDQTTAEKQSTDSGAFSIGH

This experiment deals with human P2X3 receptor (Homo sapiens (Human), UniProt P56373). Kind of experiment: Evaluation of human P2X3 receptor inhibitory activity (Test Example 1). The conditions noted are these: C6BU-1 cell transfected with human P2X3 receptor gene, FLIPR 384. The experiment is classed as cell-based. The protocol: Stably expressing cell line (C6BU-1 cell transfected with human P2X3 receptor gene (GenBank accession number Y07683) was used. The cells were seeded in a 384-well PDL-coated microtiter plate at a concentration of 3000 cells/well and cultured in the medium (8.3% fetal bovine serum, 8.3% horse serum, and 1% antibiotic and antifungal in DMEM) for one day at 37° C. under 5% carbon dioxide atmosphere. The medium was replaced with 4 μM Fluo-3-AM solution (20 mM HEPES, 137 mM NaCl, 2.7 mM KCl, 0.9 mM MgCl2, 5.0 mM CaCl2, 5.6 mM D-glucose, 2.5 mM probenecid, 0.5% BSA, and 0.04% Pluronic F-127, pH 7.5) and incubated at 37° C. under 5% dioxide carbon atmosphere for one hour. The plate was washed with washing buffer (20 mM HEPES, 137 mM NaCl, 2.7 mM KCl, 0.9 mM MgCl2, 5.0 mM CaCl2, 5.6 mM D-glucose, 2.5 mM probenecid, pH7.5), and each well was added with 20 μL of the washing buffer. The plate was placed in High-Throughput Screening System FLIPR 384 (Molecular Device Co.). Measurement of fluorescence intensity by FLIPR 384 was started, and 20 μL of DMSO solutions containing different concentrations of the test compound as prepared by dilution with dilution buffer (20 mM HEPES, 137 mM NaCl, 2.7 mM KCl, 0.9 mM MgCl2, 5.0 mM CaCl2, 5.6 mM D-glucose, 2.5 mM probenecid, 0.1% Pluronic F-127, pH7.5) were dispensed to each well through the built-in automatic dispenser. Five minutes after, 150 nM ATP solution (25 μL) prepared by dilution with the dilution buffer was dispensed through the built-in automatic dispenser, and the measurement of fluorescence intensity was continued for 4 min. For each well, the specific maximum fluorescence intensity was calculated as the ratio of the maximum fluorescence intensity after addition of the ATP solution to the fluorescence intensity at the starting of the measurement. […] The specific maximum fluorescence intensity and IC50 were calculated using Spotfire (Science & Technology Systems, Inc.)
In the case of `[2H]C([2H])([2H])c1ccc(Cn2c(=O)n(C[C@H](C)C(=O)OC)c(=O)[nH]/c2=N\c2ccc(Oc3ccc(C)nc3)cc2)cc1` [Compound R-209], the midpoint of inhibition, the IC50, lay at 5 nM.

In the case of `COC(=O)[C@@H](C)Cn1c(=O)[nH]/c(=N\c2ccc(Oc3ccc(F)cn3)cc2)n(Cc2ccc(C)cc2)c1=O` [Compound I-036], it took 5 nM to reach half-maximal inhibition (IC50).

Consider `[2H]C([2H])([2H])c1ccc(Cn2c(=O)n(C[C@H](C)C(=O)O)c(=O)[nH]/c2=N\c2ccc(Oc3ccc(C)nc3)cc2)cc1` [Compound R-210], for which 6 nM corresponded to half-maximal inhibition (IC50).

The values are drawn from patent publication US10065941B2, “Aminotriazine derivative and pharmaceutical composition comprising the same” (Shionogi & Co., Ltd., priority 2013, dated 2018).
